Measured values: patent US6627452B1, “Method for screening drug preparations” (priority 1999, dated 2003)

Tests used:
[1] = system: cell fraction of patient's cultured blood; assay: -SH/-SS ratio in the cell fraction of patient's cultured whole heparinized blood (amperometric titration); assay type: cell-based, human
[2] = system: chronic viral hepatitis B; assay: Reaferon treatment of patient, Example 6; assay type: in vivo, human; conditions: 10^6 U intramuscularly each third day for 6 months
Excerpt: Patient K-n A. V. Diagnosis: chronic viral hepatitis B with no delta-agent (virus). […] A course of treatment with Reaferon administered intramuscularly at the dose of 10^6 U each third day for 6 months was provided. The treatment was associated with the normalization of ALT and AST activities, reversal of HBV DNA, HBeAg, and HBsAg, and a stable remission lasted for 8 months.

Reaferon: Reaferon (NPO Vector, Russia), dosed in 10^6 U
-SH/-SS ratio ([1]; Example 2 patient, transverse colon cancer T4N2M1, dosage 0.5 x 10^6 U (in vitro 1:5000), control 1.17): 1.25
-SH/-SS ratio ([1]; Example 2 patient, transverse colon cancer T4N2M1, dosage 1.0 x 10^6 U (in vitro 1:5000), control 1.17): 1.50
-SH/-SS ratio ([1]; Example 2 patient, transverse colon cancer T4N2M1, dosage 3.0 x 10^6 U (in vitro 1:5000), control 1.17): 1.08
-SH/-SS ratio ([1]; Example 2 patient, transverse colon cancer T4N2M1, dosage 6.0 x 10^6 U (in vitro 1:5000), control 1.17): 1.03
-SH/-SS ratio ([1]; Example 6 patient, chronic viral hepatitis B, dosage 0.5 x 10^6 U (in vitro 1:5000), control 1.52): 2.53
-SH/-SS ratio ([1]; Example 6 patient, chronic viral hepatitis B, dosage 1.0 x 10^6 U (in vitro 1:5000), control 1.52): 3.07
-SH/-SS ratio ([1]; Example 6 patient, chronic viral hepatitis B, dosage 3.0 x 10^6 U (in vitro 1:5000), control 1.52): 2.14
-SH/-SS ratio ([1]; Example 6 patient, chronic viral hepatitis B, dosage 6.0 x 10^6 U (in vitro 1:5000), control 1.52): 1.79
ALT and AST activities [2]: normalization
HBV DNA, HBeAg, and HBsAg [2]: reversal
duration of stable remission [2]: 8 months
